Measured values published in patent publication US10543199B2, “Macrocycle and composition comprising thereof” (Shenzhen TargetRx, Inc., priority 2016, dated 2020).

How the values were obtained:
[1] = Metabolic stability in human liver microsomes; type: in vitro ADME; conditions: human liver microsomes 0.5 mg/mL, compound 1 μM
Procedure: (§1) Metabolic Experiment of Liver Microparticle.
(§2) Experiments in microsomes: Human liver microsomes: 0.5 mg/mL, Xenotech; Rat liver microsomes: 0.5 mg/mL, Xenotech; Coenzyme (NADPH/NADH): 1 mM, Sigma Life Science; Magnesium chloride: 5 mM, 100 mM phosphate buffer (pH 7.4).
(§3) Preparation of stock solution: Powder of the example compound 2-8 was accurately weighed and dissolved in DMSO to 5 mM.
(§4) Preparation of phosphate buffer (100 mM, pH7.4): A pre-formulated 0.5M potassium dihydrogen phosphate (150 mL) was mixed with 0.5M dibasic potassium phosphate (700 mL). The pH of the mixture was adjusted to 7.4 with 0.5M dibasic potassium phosphate solution. The mixture was diluted 5-fold with ultrapure water before use, and magnesium chloride was added to obtain a phosphate buffer (100 mM) containing 100 mM potassium phosphate, 3.3 mM magnesium chloride, pH 7.4.
(§5) A NADPH regeneration system solution (containing 6.5 mM NADP, 16.5 mM G-6-P, 3 U/mL G-6-PD, 3.3 mM magnesium chloride) was prepared and placed on wet ice prior to use.
(§6) Preparation of stop solution: acetonitrile solution containing 50 ng/mL propranolol hydrochloride and 200 ng/mL tolbutamide (internal standard). 25057.5 μL of phosphate buffer (pH 7.4) was taken into a 50 mL centrifuge tube, to which 812.5 μL human liver microsomes were added, and mixed to obtain a liver microsome dilution solution with a protein concentration of 0.625 mg/mL. 25057.5 μL of phosphate buffer (pH 7.4) was taken into a 50 mL centrifuge tube, to which 812.5 μL SD rat liver microsomes were added, and mixed to obtain a liver microsome dilution solution with a protein concentration of 0.625 mg/mL.
(§7) Incubation of the samples: The stock solution of the respective compound was respectively diluted to 0.25 mM with an aqueous solution containing 70% acetonitrile, and used as a working solution, ready for use. 398 μL of the dilution solution of human liver microsomes or rat liver microsome were added to a 96-well incubation plate (N=2), respectively, and 2 μL of 0.25 mM working solution was added and mixed.
(§8) Metabolic stability assay: 300 μL of pre-chilled stop solution was added to each well of a 96-well deep well plate and placed on ice as a stop plate. The 96 well incubation plate and NADPH regeneration system were placed in a 37° C. water bath box, shaken at 100 rpm and pre-incubated for 5 min. 80 μL of incubation solution was taken out from each well of the incubation plate and added to the stop plate, mixed, and replenished with 20 μL of NADPH regeneration system solution as a 0-min sample. 80 μL of NADPH regeneration system solution was added to each well of the incubation plate to start the reaction and start counting. […] Separately, 100 μL of the reaction solution was taken at 10, 30, and 90 min reaction, respectively, added to a stop plate, and vortexed for 3 minutes to terminate the reaction. The stop plate was centrifuged at 5000×g at 4° C. for 4 min. 100 μL of the supernatant was added to a 96-well plate to which 100 μL of distilled water was previously added, mixed, and analyzed by LC-MS/MS.
(§9) Data analysis: The peak areas of the corresponding compound and internal standard were detected by LC-MS/MS system, and the ratio of the peak area of the compound to the internal standard was calculated.

[2] = Metabolic stability in rat liver microsomes; type: in vitro ADME, SD rat; conditions: rat liver microsomes 0.5 mg/mL, compound 1 μM
Procedure: as §1, §2, §3, §4, §5, §6, §7, §8, §9

Compound | CLint [1] [µL/min/mg] | t1/2 [1] [h] | CLint [2] [µL/min/mg] | t1/2 [2] [h]
[2H]C1([2H])c2nn(C)c(C#N)c2-c2cnc(N)c(c2)OC(C)c2cc(F)ccc2C(=O)N1C (racemic) [Compound 72] | <9.6 | >2.42 | <9.6 | 2.42
[2H]C([2H])([2H])N1Cc2nn(C)c(C#N)c2-c2cnc(N)c(c2)OC(C)c2cc(F)ccc2C1=O (stereo not drawn) [Compound 18] | <9.6 | >2.42 | <9.6 | 2.42
[2H]C([2H])([2H])n1nc2c(c1C#N)-c1cnc(N)c(c1)OC(C)c1cc(F)ccc1C(=O)N(C)C2 (stereo not drawn) [Compound 28] | – | – | <9.6 | 2.42
[2H]C([2H])([2H])C1([2H])Oc2cc(cnc2N)-c2c(nn(C)c2C#N)CN(C)C(=O)c2ccc(F)cc21 (stereo not drawn) [Compound 45] | <9.6 | >2.42 | <9.6 | 2.42
[2H]C([2H])([2H])N1Cc2nn(C([2H])([2H])[2H])c(C#N)c2-c2cnc(N)c(c2)OC(C)c2cc(F)ccc2C1=O (stereo not drawn) [Compound 58] | <9.6 | >2.42 | <9.6 | 2.42
[2H]C([2H])([2H])n1nc2c(c1C#N)-c1cnc(N)c(c1)OC([2H])(C([2H])([2H])[2H])c1cc(F)ccc1C(=O)N(C)C2 (stereo not drawn) [Compound 76] | <9.6 | >2.42 | <9.6 | 2.42
C[C@H]1Oc2cc(cnc2N)-c2c(nn(C)c2C#N)CN(C)C(=O)c2ccc(F)cc21 [PF-06463922, reference compound] | – | – | <9.6 | 2.42
